Data taken from patent publication US4684624A (priority 1985, dated 1987).

Test system: acute focal cerebral ischemia (MCA occlusion)

CO[C@]12CC[C@@]3(C[C@@H]1C(C)(C)O)[C@H]1Cc4ccc(O)c5c4[C@@]3(CCN1CC1CC1)[C@H]2O5
effect in prolonging survival (cats after MCA occlusion, in words): little effect in prolonging survival
mortality, 24-28 hours (cats dying 24-28 hours after MCA occlusion, i.p. dose 6 h after occlusion, then osmotic pump infusion): 8%
mortality, 48-72 hours (cats dying 48-72 hours after MCA occlusion, i.p. dose 6 h after occlusion, then osmotic pump infusion): 8%
mortality, less than 24 hours (cats dying less than 24 hours after MCA occlusion, i.p. dose 6 h after occlusion, then osmotic pump infusion): 84%
lived up to 7 days (cats surviving to 7 days after MCA occlusion, i.p. dose 6 h after occlusion, then osmotic pump infusion): 0%
